Assay results as given in patent US6136552A, “High-affinity salicylic acid-binding protein and methods of use” (Rutgers, The State University of New Jersey, priority 1997, dated 2000).

Tests used:
[1] = test system: PR-1 gene expression; test: Induction of PR-1 gene expression in leaf discs (northern blot); assay type: cell-based, tobacco; settings: Nicotiana tabacum, foliar, 24 hours after treatment, read-out: concentration giving 15-fold induction of PR-1 gene expression
From the text: As a control, rRNA present in each lane is also shown. FIG. 7B is a graph showing quantification of the fold-induction of the PR-1 mRNA levels after SA (.cndot.) and BTH (.smallcircle.) treatment. The levels of PR-1 mRNA were normalized to the amounts of rRNA. The rRNA-normalized levels of PR-1 mRNA obtained after infiltration of leaf discs with SA or BTH were divided by the rRNA-normalized level of PR-1 mRNA obtained after infiltration with water only to determine the fold induction. The data presented are from a single experiment; two additional experiments were done. The maximum-fold induction of the PR-1 genes and the concentrations of SA and BTH required to reach approximately 50% of this value varied somewhat among the three experiments, depending on the age of the plant. In the three experiments, the concentrations of BTH needed to reach approximately 50% induction were 30- to 40-fold lower than those for SA.

[2] = molecular target: T1, (NH4)2 SO4 fractions of tobacco leaf soluble protein extract (Nicotiana tabacum, UniProt Q6RYA0); test: Binding of [3H]SA to various (NH4)2SO4 fractions; settings: 0.1 μM [3H]SA
T1 construct: Soluble proteins were extracted from the powdered leaves; from tissue; host or cells: tobacco leaf (cv. Xanthi nc), ammonium sulfate fractions
T1 sequence (Q6RYA0 1-260): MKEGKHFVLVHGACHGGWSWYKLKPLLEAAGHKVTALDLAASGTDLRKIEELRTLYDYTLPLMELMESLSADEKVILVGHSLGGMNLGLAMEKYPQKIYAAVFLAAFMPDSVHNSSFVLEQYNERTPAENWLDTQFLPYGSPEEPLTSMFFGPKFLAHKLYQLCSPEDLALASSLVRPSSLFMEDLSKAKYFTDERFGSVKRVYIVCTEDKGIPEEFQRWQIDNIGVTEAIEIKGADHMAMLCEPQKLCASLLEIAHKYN
Protocol: (§1) Leaf extraction. Tobacco leaves from 7-8 week old plants (100 g) were deribbed and ground to a fine powder in liquid nitrogen. All subsequent procedures were carried out at 4° C. Soluble proteins were extracted from the powdered leaves by incubating for 30 minutes in 400 mL buffer A containing 20 mM sodium citrate pH 6.5, 5 mM MgSo4, 1 mM EDTA, 14 mM β-mercaptoethanol, and 1% (w/w) polyvinylpyrrolidone (PVP). Cell debris was removed by centrifugation at 23,000 g for 25 minutes and the supernatant was collected by filtration through two layers of Miracloth (Calbiochem). In some preparations the membrane fraction was removed by centrifugation at 85,000 g for 1 hour. Soluble proteins were precipitated from the crude extract with (NH4)2 SO4 adjusted sequentially to 25%, 50%, 75%, and 100% saturation, incubated for 30 minutes, and centrifuged at 23,000 g for 25 minutes. Pellets from each (NH4)2 SO4 fraction were dissolved in 5 mL buffer A and dialyzed twice in 4 L of buffer A overnight. The four (NH4)2 SO4 fraction extracts were stored on ice before use. Catalase activity in the extract was measured using an O2 evolution assay as described by Takahashi et al. (1997). Protein concentration of each extract was measured according to Bradford (Bradford, 1976) using the Bio-Rad protein assay kit.
(§2) [3H]SA binding and competition assays. Extracts (50-100 μL of 0.5-50 mg/mL) from various (NH4)2 SO4 fractions were mixed with 0.1 μM [^3 H]SA in 150 μL reaction mixture and incubated on ice for 2 hours. Spin columns were prepared by packing Sephadex G25 gel (exclusion limit 5 kDa; Pharmacia), which was pre-equilibrated in buffer A, in a 1-mL disposable syringe and centrifuging at 1,000 g for 4 minutes at 4° C. This process was repeated until the bed volume of the spin column reached 1 mL. One additional spin with 125 μL buffer A was performed under the same centrifugation conditions. The binding mixture (125 μL) was loaded onto the spin column and immediately centrifuged. Bound [^3 H]SA in the flow through (100 μL) was measured in a liquid scintillation counter. When no protein extract was included in the binding mixture, the background radioactivity level was 33±3 dpm/100 μL. For the boiling treatment, the extract was boiled for 5 minutes and denatured protein aggregates were removed by centrifugation at 12,000 g for 1 minute. Nonspecific [^3 H]SA binding was estimated by carrying out the binding assay in the presence of 1 mM unlabeled SA. For the [^3 H]SA competition assay, unlabeled SA and its analogues were diluted in 20 mM sodium citrate (pH 6.5) and incubated with 50 AL extract and 0.1 MM [^3 H]SA as described above.

[3] = test system: (NH4)2 SO4 fractions of tobacco leaf soluble protein extract; test: Binding of [3H]SA to various (NH4)2SO4 fractions; settings: 0.1 μM [3H]SA
Protocol: as §1, §2

O=C(O)c1ccccc1O [SA, salicylic acid]
EC (15-fold) [1]: ~130 µM

O=C(O)c1ccccc1O [[^3 H]SA]
Binding of [3H]SA, 50-75% fraction [2]: 2.23 ± 0.24 dpm (×10^-3) per mg protein | Binding of [3H]SA, 0-25% fraction [3]: 32.8 ± 2.1 dpm (×10^-3) per mg protein | Binding of [3H]SA, 25-50% fraction [3]: 7.27 dpm (×10^-3) per mg protein | Binding of [3H]SA, 75-100% fraction [3]: 0.35 ± 0.57 dpm (×10^-3) per mg protein
